The values below come from paper PMC6287576 (International Journal for Parasitology: Drugs and Drug …, 2018).

Test [1] addresses T1, C. elegans N-AChR (ACR-16) (Caenorhabditis elegans, UniProt P48180).
T1 sequence (P48180 20-498): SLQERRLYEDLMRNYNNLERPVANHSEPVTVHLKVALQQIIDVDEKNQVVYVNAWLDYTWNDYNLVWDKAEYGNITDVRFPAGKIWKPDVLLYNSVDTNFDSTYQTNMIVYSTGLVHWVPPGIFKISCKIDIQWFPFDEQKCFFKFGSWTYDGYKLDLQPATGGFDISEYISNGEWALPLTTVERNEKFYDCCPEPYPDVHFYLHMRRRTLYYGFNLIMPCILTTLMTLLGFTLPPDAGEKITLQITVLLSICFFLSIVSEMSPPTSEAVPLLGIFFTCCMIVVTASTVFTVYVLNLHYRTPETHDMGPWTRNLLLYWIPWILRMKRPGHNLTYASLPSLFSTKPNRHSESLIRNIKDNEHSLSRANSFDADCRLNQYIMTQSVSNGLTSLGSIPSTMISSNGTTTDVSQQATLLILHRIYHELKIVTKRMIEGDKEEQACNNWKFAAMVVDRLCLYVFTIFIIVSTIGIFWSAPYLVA
Briefly: Two-electrode voltage-clamp, Cel-N-AChR in Xenopus oocytes. The following applies: normalized to 1 mM ACh, -60 mV. The test is classed as cell-based. On the technique in general: Two-electrode voltage clamp holds a large cell at a set potential and records current.

The target of test [2] is T2, P. equorum N-AChR (ACR-16) (Parascaris equorum, UniProt A0A3S9VMQ8).
T2 sequence (A0A3S9VMQ8 25-504): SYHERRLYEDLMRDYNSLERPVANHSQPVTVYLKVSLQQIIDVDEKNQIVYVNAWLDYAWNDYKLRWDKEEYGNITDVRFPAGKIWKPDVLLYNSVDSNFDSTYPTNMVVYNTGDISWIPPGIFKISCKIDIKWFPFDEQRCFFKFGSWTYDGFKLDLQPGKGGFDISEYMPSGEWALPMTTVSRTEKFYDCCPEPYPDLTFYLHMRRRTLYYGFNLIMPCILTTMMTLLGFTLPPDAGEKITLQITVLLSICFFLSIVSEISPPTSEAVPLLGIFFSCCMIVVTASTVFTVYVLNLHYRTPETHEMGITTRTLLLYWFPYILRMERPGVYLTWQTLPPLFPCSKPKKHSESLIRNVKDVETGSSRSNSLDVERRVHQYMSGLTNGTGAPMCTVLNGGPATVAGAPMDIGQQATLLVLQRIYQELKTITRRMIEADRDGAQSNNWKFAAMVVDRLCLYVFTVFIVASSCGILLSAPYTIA
Briefly: Two-electrode voltage-clamp, Peq-N-AChR in Xenopus oocytes. The test is classed as cell-based. The settings on record: normalized to 1 mM ACh, -60 mV.

What is called EC50 is the concentration needed to bring the measured effect to its halfway point. High values mean weaker potency, low ones greater potency. (±)-nornicotine: the figures for the half-maximal effective concentration (EC50) in test [1] and in test [2] were 67.7 ± 6.6 µM and 34.9 ± 7.2 µM, respectively.
